The text below walks through data of PubChem BioAssay AID1012 (Sanford-Burnham Center for Chemical Genomics, 2008).

The chains behind the UniProt entries cited, without tags or fusion partners.
UniProt P05186, whole entry: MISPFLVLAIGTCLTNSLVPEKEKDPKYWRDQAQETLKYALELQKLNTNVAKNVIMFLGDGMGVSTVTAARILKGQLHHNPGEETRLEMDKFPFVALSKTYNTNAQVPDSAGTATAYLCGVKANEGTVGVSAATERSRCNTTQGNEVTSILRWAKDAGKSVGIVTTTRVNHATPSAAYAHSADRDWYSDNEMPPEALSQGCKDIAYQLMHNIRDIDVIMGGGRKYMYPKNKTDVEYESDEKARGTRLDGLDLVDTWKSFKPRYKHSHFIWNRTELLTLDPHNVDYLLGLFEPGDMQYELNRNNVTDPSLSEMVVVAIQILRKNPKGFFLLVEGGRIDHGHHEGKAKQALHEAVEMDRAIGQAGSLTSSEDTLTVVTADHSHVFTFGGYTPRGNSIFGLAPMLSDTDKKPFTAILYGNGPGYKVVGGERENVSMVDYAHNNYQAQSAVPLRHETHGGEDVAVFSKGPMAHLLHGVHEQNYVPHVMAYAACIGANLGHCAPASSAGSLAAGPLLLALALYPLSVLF

The entries are a selection whose mix differs from that of the whole data set. Active and inactive are the calls of the source.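 The calls were made as follows: active = tissue-nonspecific alkaline phosphatase inhibition above about 50% at 20 µM in the single-dose screen (limit read from the data); inactive = the rest.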

For this test, the target named is Alkaline phosphatase, tissue-nonspecific isozyme (Homo sapiens) (UniProt P05186). Kind of test: blockers of alkaline phosphatase TNAP activity – biochemical, luminescent, no phosphate acceptor, uHTS, primary screen (AID 1012).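 Also: 0% = DMSO negative control and 100% = EDTA positive control.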 The settings on record: purified TNAP, CDP-star luminescence, 30 min; at 20 µM; active compounds read high.
For orientation: inhibition means the relative decrease from the control value, in per cent. Turning to `COc1ccc(CN(CCCl)CCCl)cc1Cl`, the inhibition is inactive: -0.9%. The same measure for `CN(C)c1cccc(C(=O)NCC2(N3CCCCC3)CCCCC2)c1`: inactive: -5.9%. As for `CC(C)c1ccc(NC2CCN(C(=O)OC(C)(C)C)CC2)cc1`, the inhibition was inactive: -11.9%.

Take `O=C(NCC1(N2CCCCC2)CCCCC1)c1cccc([N+](=O)[O-])c1`: the inhibition is inactive: -5.3%. The same measure for `N#CC1(Nc2ccccc2)CCN(CCc2ccccc2)CC1`: inactive: -13.4%. For the compound `COc1ccc(NC2CCN(C(=O)OC(C)(C)C)CC2)cc1`, the inhibition is inactive: -4.9%.

For `CN1CCN(CCOC(=O)C(O)(c2ccccc2)c2ccccc2)CC1`, the inhibition is inactive: 0.8%. Regarding `O=C(NCC1(N2CCOCC2)CCCCC1)c1cc(=O)[nH]c2ccccc12`, the inhibition was inactive: -10.8%. Consider `COc1ccc(NC2CCN(CCc3ccccc3)CC2)c(OC)c1`, for which the inhibition is inactive: -6.8%. Regarding `COc1ccc(C(=O)NCC2(N3CCCCC3)CCCCC2)c(OC)c1OC`, the inhibition was inactive: -9.9%. Consider `CCOC(=O)N1CCC(Nc2ccc(OC)cc2)CC1`, for which the inhibition was inactive: -3.6%. `O=C(OC1CN2CCC1CC2)C1c2ccccc2Oc2ccccc21` (stereo not given): the inhibition is inactive: -5.2%. As to `O=C(NCC1(N2CCOCC2)CCCCC1)c1cc2ccccc2o1`, the inhibition was inactive: -4.8%.

As to `CC(C)(C)OC(=O)N1CCC(Nc2ccccc2)CC1`, the inhibition was inactive: -9.9%. Take `CCOc1ncccc1C(=O)NCC1(N2CCOCC2)CCCCC1`: the inhibition is inactive: -5.8%. The same measure for `CCC(CO)(C(=O)OC1CN2CCC1CC2)c1ccccc1` (stereo not given): inactive: -4.7%; for `COc1cc(OC)cc(C(=O)NCC2(N3CCOCC3)CCCCC2)c1`: inactive: -7.8%.

Take `Fc1ccccc1NC1CCN(Cc2ccccc2)CC1`: the inhibition was inactive: -5.2%. With `CN(C)c1ccc(C(=O)NCC2(N3CCCCC3)CCCCC2)cc1`, the inhibition is inactive: -13.6%. With `CCN1CCC(Nc2cccc(F)c2)CC1`, the inhibition was inactive: -8.1%. On to `N#Cc1ccc(C(=O)NCC2(N3CCCCC3)CCCCC2)cc1`, for which the inhibition is inactive: -0.3%. The same measure for `c1ccc(CN2CCC(Nc3ccccc3)CC2)cc1`: inactive: -9.1%. Consider `COc1ccc(C(=O)NCC2(N3CCOCC3)CCCCC2)cc1OC`, for which the inhibition was inactive: -11.9%.

In the case of `O=C(OC1CN2CCC1CC2)C1c2ccccc2C=Cc2ccccc21` (stereo not given), the inhibition is inactive: -0.9%. Turning to `N/C(=N\O)c1c(N)no[n+]1[O-]`, the inhibition was inactive: -16.4%.
